{
  "source": "BindingDB's records for doi:10.1107/s0907444999007350",
  "about": "(Berlex, 1999)",
  "target": "T1, Serine protease 1 (Bos taurus, UniProt P00760)",
  "T1 sequence (P00760 whole entry)": "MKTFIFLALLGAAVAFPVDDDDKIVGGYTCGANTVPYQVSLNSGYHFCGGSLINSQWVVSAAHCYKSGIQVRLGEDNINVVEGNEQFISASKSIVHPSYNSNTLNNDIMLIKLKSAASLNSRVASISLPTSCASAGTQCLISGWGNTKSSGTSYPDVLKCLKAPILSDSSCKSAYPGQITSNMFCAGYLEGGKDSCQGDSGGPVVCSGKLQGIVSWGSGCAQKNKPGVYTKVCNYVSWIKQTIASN",
  "assay": "Enzyme Inhibition Assay",
  "settings": "pH 7.5; 22 °C",
  "experimental": "The enzyme activities were determined kinetically as the initial rate of cleavage of a peptide p-nitroanilide. Km for enzyme and substrate was determined using four substrate dilutions. Enzyme was incubated with test compounds for 10 min; the reaction was then started by the addition of the substrate. […] IC50 values for inhibitors were determined from the dose response curve by fitting the data to the Hill equation. Ki,app values were calculated as the IC50/2, with the IC50 value determined at a substrate concentration equal to Km",
  "data": [
    {"smiles": "Cc1c(F)c(Oc2cccc(C(=N)N)c2)nc(Oc2cccc(C(=N)N)c2)c1F", "values": [
      {"measurement": "Ki", "result": 870, "unit": "nM"}
    ]}
  ]
}
